The source of these data is patent US11530244B2, “Cyclic polypeptides for PCSK9 inhibition” (priority 2018, dated 2022).

By UniProt entry, the sequences of proteins in these tests, tags left out. Residues count along the entry.
UniProt Q8NBP7, 31-152 partner: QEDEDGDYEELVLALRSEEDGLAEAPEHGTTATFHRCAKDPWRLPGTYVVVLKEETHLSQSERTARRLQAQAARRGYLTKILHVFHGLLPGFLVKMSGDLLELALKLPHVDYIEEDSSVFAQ
UniProt Q8NBP7, 153-692: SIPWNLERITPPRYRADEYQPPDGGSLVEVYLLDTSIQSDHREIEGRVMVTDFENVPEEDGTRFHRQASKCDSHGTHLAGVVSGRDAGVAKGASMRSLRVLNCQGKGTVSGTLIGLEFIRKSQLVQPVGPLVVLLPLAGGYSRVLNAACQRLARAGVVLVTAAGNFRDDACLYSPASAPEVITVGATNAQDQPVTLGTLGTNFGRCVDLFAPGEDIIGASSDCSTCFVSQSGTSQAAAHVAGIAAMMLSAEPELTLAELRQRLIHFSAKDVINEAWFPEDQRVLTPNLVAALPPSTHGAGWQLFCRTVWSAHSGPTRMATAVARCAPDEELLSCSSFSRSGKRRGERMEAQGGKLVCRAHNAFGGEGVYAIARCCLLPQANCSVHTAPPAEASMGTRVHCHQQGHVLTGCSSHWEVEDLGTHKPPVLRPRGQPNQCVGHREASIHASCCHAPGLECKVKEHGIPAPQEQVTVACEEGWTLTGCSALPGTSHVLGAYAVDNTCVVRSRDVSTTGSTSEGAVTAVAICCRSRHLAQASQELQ

In assay [1] the target is human PCSK9 / human LDLR EGFa domain interaction (Homo sapiens (Human), UniProt Q8NBP7). Nature of the assay: TR-FRET assay of inhibition of the PCSK9-LDLR protein-protein interaction. The assay is classed as binding. The protocol:
A time-resolved fluorescence resonance energy (TR-FRET) assay was used to measure inhibition of the PCSK9-LDLR protein-protein interaction. Briefly, 20 nM avitag-biotinylated human PCSK9 was incubated with 20 nM his-tagged human LDLR EGFa domain in the presence of 5 nM LANCE Ulight Streptavidin (Perkin Elmer) and 5 nM europium-Anti-6×His (Perkin Elmer) for 2 hours covered at room temperature in buffer containing 50 mM HEPES, 150 mM NaCl, 5 mM CaCl2), 0.01% BSA and 0.01% Surfactant P20. Compounds were tested in dose-response and concentrations giving half-maximal inhibition calculated using a 4-parameter fit equation.

Assay [2] has as its target PCSK9 (Homo sapiens (Human), UniProt Q8NBP7). Nature of the assay: PCSK9 Alexa FRET Standard assay (displacement of AlexaFluor647 tagged cyclic peptide Reagent A). Format: binding. As for the experimental part:
A solution containing 1 nM biotinylated PCSK9+2.5 nM Lance Streptavidin Europium (Strep-Eu) was made in 50 mM HEPES pH 7.4, 0.15 M NaCl, 5 mM CaCl2), 0.01% BSA, and 0.01% Surfactant P20. A separate solution containing 40 nM of the AlexaFluor tagged cyclic peptide was made in the same buffer system. An Echo was used to transfer 0.750 ul of compound to an assay plate followed by the addition of 15 ul of PCSK9+Stept-Eu and 15 ul of AF peptide. The final assay volume was 30.750 ul containing 0.5 nM PCSK9, 1.25 nM Strep-Eu, and 20 nM AF cyclic peptide. The reaction was incubated at room temperature for at least two hours prior to fluorescence measurements using an Envision Multilabel Reader. IC50 values were determined by fitting data to a sigmoidal dose-response curve using nonlinear regression. Ki was then calculated from the IC50 and the KD of AF cyclic peptide. Counts (B-counts) of the europium-labeled PCSK9 were followed to observe if compounds were […]. A fall off of the B-counts likely indicated a false positive of inhibition. Data from this procedure was reported as “A=‘numerical value’ (nanomolar)”

pIC50: −log10 of the molar value.

As to `COc1ccc(C[C@@H]2NC(=O)[C@H]([C@@H](C)OC)NC(=O)[C@@H]3CC/C=C\COc4cccc(c4)C[C@H](NC(=O)[C@@H](C)NC(=O)[C@H](C)NC(=O)CCSCc4cccc(c4)CSCCNC(=O)[C@]4(C)CCCN4C2=O)C(=O)N[C@@H](Cc2c[nH]c4ccc(F)cc24)C(=O)N3C)cc1` [Compound 501], the pIC50 in assay [1] is 7.00 to 10.00; in assay [2] it was 7.00 to 9.96.

For the compound `COc1ccc(C[C@@H]2NC(=O)[C@H]([C@@H](C)OC)NC(=O)[C@@H]3CC/C=C/COc4cccc(c4)C[C@H](NC(=O)[C@@H](C)NC(=O)[C@H](C)NC(=O)CCSCc4cccc(c4)CSCCNC(=O)[C@]4(C)CCCN4C2=O)C(=O)N[C@@H](Cc2c[nH]c4ccc(F)cc24)C(=O)N3C)cc1` [Compound 503], the negative logarithm of the IC50 (pIC50) was 7.00 to 10.00 in assay [1] and 7.00 to 9.96 in assay [2].

In turn, `COc1ccc(C[C@@H]2NC(=O)[C@H]([C@@H](C)OC)NC(=O)[C@@H]3CCC/C=C/c4cccc(c4)C[C@H](NC(=O)[C@@H](C)NC(=O)[C@H](C)NC(=O)CCSCc4cccc(c4)CSCCNC(=O)[C@]4(C)CCCN4C2=O)C(=O)N[C@@H](Cc2c[nH]c4ccc(F)cc24)C(=O)N3C)cc1` [Compound 513] showed a pIC50 in assay [2] of 7.00 to 9.96.
